According to ChEMBL document CHEMBL5252531, “2015 Philip S. Portoghese Medicinal Chemistry Lectureship. Curing Hepatitis C Virus Infection with Direct-Acting Antiviral Agents: The Arc of a Medicinal Chemistry Triumph” (J Med Chem, 2016):

Key:
in vivo = settings: male, beagle, dog, po, 3 mg/kg
[1] = Clearance in Wistar rat at 10 mg/kg, po measured after 4 hrs; type: ADME, organism-based; settings: in vivo
[2] = Clearance in Wistar rat at 10 mg/kg, iv measured after 4 hrs; type: ADME, organism-based; settings: in vivo

Structure (SMILES): C=C[C@@H]1C[C@]1(NC(=O)[C@@H]1C[C@@H](Oc2ncc(OC)c3ccc(Cl)cc23)CN1C(=O)[C@@H](NC(=O)OC(C)(C)C)C(C)(C)C)C(=O)NS(=O)(=O)C1CC1
- bioavailability (in vivo): 61%

Structure (SMILES): COc1ccc2c(c1)C1CC1(C(=O)N1C3CCC1CN(C)C3)Cn1c-2c(C2CCCCC2)c2ccc(C(=O)NS(=O)(=O)N(C)C)cc21 (racemic)
- CL [1]: 7.2 mg/mL/kg
- CL [2]: 20.6 mg/mL/kg
